Measurements from PubChem BioAssay AID868 (SRMLSC, 2007).
The list shows a part of the results, in another mix than the full data. Active and inactive are the calls of the source.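 The calls were made as follows: active = inhibition above a set limit, 3 SD over mean compound inhibition (cut at about 8.4% in these data); inactive = the rest.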

Assay: inhibitors of the yeast RAM network, primary screen, dse1pr::URA3 reporter, 5-FOA selection (AID 868);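 also: 0% = DMSO-only wells with no growth and 100% = 10 µM 1-NA-PP1 full growth; inhibition rescues growth on 5-FOA so higher OD means more RAM inhibition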
Settings: S. cerevisiae dse1pr::URA3 reporter, 5-FOA growth OD615, 2 d; at 50 µM; hits give high values; analog-sensitive cbk1-as2 kinase mutant strain

SMILES | inhibition
O=[N+]([O-])c1cc([N+](=O)[O-])c(NCC2CCS(=O)(=O)C2)c([N+](=O)[O-])c1 (stereo not drawn) | inactive: 0.96%
CN(C)CCOC(=O)C(O)(c1ccccc1)C1CCCCC1 (stereo not drawn) | inactive: 0%
COc1ccc(NP(C)(=O)Oc2ccccc2OC)cc1 (stereo not drawn) | inactive: 1.38%
COc1ccc(OP(C)(=O)Nc2cccc(Br)c2)cc1 (stereo not drawn) | inactive: 0.79%
Cc1ccccc1NP(C)(=O)Nc1ccccc1C | inactive: 2.42%
CP(=O)(Nc1ccc2c(c1)OCCO2)Oc1ccccc1 (stereo not drawn) | inactive: -0.11%
CCOP(C)(=S)SCC(=O)NC(C)(CC)C(=O)O (stereo not drawn) | inactive: 1.44%
O=C(OCCN1CCN(CCOCc2ccccc2)CC1)C(O)(c1ccccc1)c1ccccc1 | inactive: -0.4%
CP(=O)(Nc1ccccc1F)Oc1ccccc1 (stereo not drawn) | inactive: 1.5%
CC(C)c1ccc(OP(C)(=O)Nc2ccc(SC(F)(F)F)cc2)cc1 (stereo not drawn) | inactive: 4.31%
CP(=O)(Nc1ccccc1)Oc1ccc(F)cc1 (stereo not drawn) | inactive: -0.4%
CCN(CC)CCCOC(=O)C(O)(c1ccccc1)C1CCCCC1 (stereo not drawn) | inactive: 3.5%
CCOC(=O)c1ccc(NP(C)(=O)Oc2ccc(F)cc2)cc1 (stereo not drawn) | inactive: 1.77%
COc1ccc(OP(C)(=O)Nc2ccc(SC(F)(F)F)cc2)cc1 (stereo not drawn) | inactive: -2.21%
CP(=O)(Nc1ccc(Cl)cc1Cl)Oc1ccccc1 (stereo not drawn) | inactive: 1.88%
CP(=O)(OCCOc1ccccc1)OCCOc1ccccc1 | inactive: 2.04%
Cc1nc2ccc3ccccc3c2o1.O=[N+]([O-])c1cc([N+](=O)[O-])c(O)c([N+](=O)[O-])c1 | inactive: 1.43%
COc1ccccc1OP(C)(=O)Nc1ccc(C)c(C)c1 (stereo not drawn) | inactive: 0.27%
COc1ccc(OP(C)(=O)Nc2ccccc2Br)cc1 (stereo not drawn) | inactive: 0.63%
Cc1cc(C)cc(OP(C)(=O)Nc2cccc(C(F)(F)F)c2)c1 (stereo not drawn) | inactive: 2.12%
COc1ccccc1OP(C)(=O)Nc1ccc(C)cc1C (stereo not drawn) | inactive: -1.07%
CP(=O)(Nc1ccccn1)Oc1ccccc1 (stereo not drawn) | inactive: -1.03%
CCc1ccc(OP(C)(=O)O)cc1 | inactive: 0.92%

SMILES | inhibition
Cc1c(NP(C)(=O)Oc2ccc(C(C)C)cc2)c(=O)n(-c2ccccc2)n1C (stereo not drawn) | inactive: 0.81%
O=[N+]([O-])c1cc([N+](=O)[O-])c(Nc2ccccn2)c([N+](=O)[O-])c1 | inactive: -0.73%
COc1ccc(OP(C)(=O)Nc2ccccn2)cc1 (stereo not drawn) | inactive: 0.44%
CN(C)CCOC(=O)C(O)(c1ccccc1)C1CCCC1 (stereo not drawn) | inactive: 2.91%
CN(C)C(=O)c1c([N+](=O)[O-])cc([N+](=O)[O-])cc1[N+](=O)[O-] | inactive: 0.5%
COc1ccccc1OP(C)(=O)Nc1ccccc1Br (stereo not drawn) | inactive: 0.97%
CC(C)(C)c1ccc(OP(C)(=O)O)cc1 | inactive: 1.5%
CP(=O)(Nc1ccc(Cl)cc1)Oc1ccc(F)cc1 (stereo not drawn) | inactive: -0.14%
CCc1ccc(OP(C)(=O)Nc2cccnc2)cc1 (stereo not drawn) | inactive: 3.39%
CP(=O)(Oc1ccccc1)N1CCOC1=O (stereo not drawn) | inactive: 1.83%
COc1ccc(OP(C)(=O)Nc2ccc(Br)cc2)cc1 (stereo not drawn) | inactive: 0.13%
CCN(CC)CC(O)COC(=O)C(O)(c1ccccc1)C1CCCCC1 (stereo not drawn) | inactive: 0.26%
CCOC(=O)c1ccc(NP(C)(=O)Oc2ccc(Cl)cc2)cc1 (stereo not drawn) | inactive: 0.83%
CP(=O)(Nc1ccccc1Br)Oc1ccccc1 (stereo not drawn) | inactive: 1.76%
COc1ccccc1OP(C)(=O)Nc1ccccc1 (stereo not drawn) | inactive: 0.13%
CP(=S)(Nn1cnnc1)Oc1ccccc1 (stereo not drawn) | inactive: 4.14%
CP(=O)(Nc1ccccn1)Oc1ccc(Cl)cc1 (stereo not drawn) | inactive: 0.55%
CCOC(=O)c1ccc(NP(C)(=O)Oc2ccc(OC)cc2)cc1 (stereo not drawn) | inactive: 0.49%
CCOP(C)(=S)SCC(=O)NC(C)C(=O)O (stereo not drawn) | inactive: 1.66%
Cc1cc(C)cc(OP(C)(=O)Nc2ccc(SC(F)(F)F)cc2)c1 (stereo not drawn) | inactive: 4.87%
CP(=O)(NC(=O)Nc1ccccc1)Oc1ccccc1 (stereo not drawn) | inactive: 0.65%
CP(=O)(Oc1ccccc1)OC(c1ccccc1)C(F)(F)F (stereo not drawn) | inactive: 0.25%
Cc1cccc(C)c1OP(C)(=O)Nc1ccc(SC(F)(F)F)cc1 (stereo not drawn) | inactive: 4.54%

SMILES | inhibition
CCN(CC)CCCOC(=O)C(O)(c1ccccc1)c1ccccc1 | inactive: -0.25%
Cc1cc(C)cc(OP(C)(N)=O)c1 (stereo not drawn) | inactive: -0.38%
COc1ccc(OP(C)(=O)Nc2cccc(F)c2)cc1 (stereo not drawn) | inactive: 0.67%
COc1ccccc1OP(C)(=O)Nc1cc(Cl)ccc1C (stereo not drawn) | inactive: -1.25%
Cc1ccc(NP(C)(=O)Oc2ccccc2)c(C)c1 (stereo not drawn) | inactive: 2.02%
COc1ccccc1OP(C)(=O)Nc1ccc(C)cc1 (stereo not drawn) | inactive: 0.46%
CCOC(=O)c1ccc(NP(C)(=O)Oc2ccccc2)cc1 (stereo not drawn) | inactive: 0.26%
O=[N+]([O-])c1ccc2c(c1)C=Nc1ccccc1O2 | inactive: 1.38%
Cc1cccc(C)c1OP(C)(N)=O (stereo not drawn) | inactive: -1.02%
CC(C)(C)c1ccc(OP(C)(=O)Nc2ccc(SC(F)(F)F)cc2)cc1 (stereo not drawn) | active: 8.96%
CC1=NCCc2c1[nH]c1ccccc21.O=[N+]([O-])c1cc([N+](=O)[O-])c(O)c([N+](=O)[O-])c1 | inactive: 0.75%
Cc1ccc(C)c(NP(C)(=O)Oc2ccccc2)c1 (stereo not drawn) | inactive: 1.55%
Cc1cc(C)cc(OP(C)(=O)Nc2ccccn2)c1 (stereo not drawn) | inactive: 0.56%
CP(=O)(Nc1cccc(Br)c1)Oc1ccccc1 (stereo not drawn) | inactive: 3.26%
CCOC(=O)c1ccc(NP(C)(=O)Oc2cc(C)cc(C)c2)cc1 (stereo not drawn) | inactive: 2.71%
Cc1cc(C)cc(OP(C)(=O)Nc2ccc(C)cc2C)c1 (stereo not drawn) | inactive: -0.71%
Cc1nc2ccc3ccccc3c2s1.O=[N+]([O-])c1cc([N+](=O)[O-])c(O)c([N+](=O)[O-])c1 | inactive: 0.81%
O=[N+]([O-])c1cc([N+](=O)[O-])c(-n2nnc3ccccc32)c([N+](=O)[O-])c1 | inactive: 3.83%
CCCOc1ccc(NP(C)(=O)Oc2ccc(Cl)cc2)cc1 (stereo not drawn) | inactive: -0.81%
CP(=O)(Nc1ccc(SC(F)(F)F)cc1)Oc1ccccc1 (stereo not drawn) | inactive: 0%
CN1CCCCC1COC(=O)C1(O)c2ccccc2CCc2ccccc21 (stereo not drawn) | inactive: -0.13%
COc1ccccc1OP(C)(=O)Nc1c(C)cccc1C (stereo not drawn) | inactive: -0.13%
